In paper PMC10539501 (Nature Communications, 2023):

System: Caco-2 cells
Assay type: in vitro ADME, human
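Further: Caco-2 monolayers used 21 days after seeding in HBSS-HEPES buffer with 1% DMSO, donor and acceptor levels quantified by LC-MS/MS, TEER checked before and after.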

Q: With `CC(C)C[C@@H]1NC(=O)[C@H](Cc2ccc(O)cc2)NC(=O)[C@H]2CCCN2C(=O)[C@H](CC(C)C)NC(=O)[C@H](CC(C)C)NC(=O)[C@@H](CC(C)C)NC1=O` [compound 10, cyclo(-D-Leu^1-Leu-Leu-D-Pro-Tyr-Leu^6-)] as the compound, how does the “Caco-2 permeability apical to basolateral (A-B)” value read?
A: 0.76 ×10⁻⁶ cm/s

Q: And the “Caco-2 permeability basolateral to apical (B-A)” value?
A: 12.4 ×10⁻⁶ cm/s
